A short description of data set [1]: Stability of the compound in pH 7.4 phosphate buffer measured over 24 hrs by LC-MS analysis. The note with it: pH 7.4, 24 h.
A short description of data set [2]: Stability of the compound in pH 7.4 phosphate buffer measured over 24 hrs by 1H-NMR analysis. The note with it: pH 7.4, 24 h.
The nature of data set [3]: Stability of the compound in phosphate buffer up to 24 hrs.

Molecules are shown by their SMILES.

Take `Cl.Cl.Nc1ccc(O)c(CN2CCCC2)c1`: the Stability entry in data set [1] and in data set [2] was “Stable” throughout.
For the molecule `CCOP(=O)(OCC)Oc1ccc(N)cc1CN1CCCC1`, in data set [3], the Stability entry is recorded as “Stable”.

Values taken from ChEMBL document CHEMBL4270596, “Discovery of a potent non-oxime reactivator of nerve agent inhibited human acetylcholinesterase” (2018).
